Experimental data from patent US20260315609A1, “MIXED VASOPRESSIN RECEPTOR AGONIST-ANTAGONIST FOR TREATING END-STAGE LIVER DISEASE AND COMPLICATIONS ASSOCIATED THEREOF” (FERRING B.V., priority 2022, published 2026).

Test system: skin blood flow (SBF)
Experiment: Skin blood flow (SBF), laser Doppler, anesthetized Wistar rats, IV infusion
Format: in vivo, rat
Protocol: This study was performed over multiple experiments using a total of 48 adult male Wistar rats. Compounds were dissolved in 2.5% dextrose and 0.45% sodium chloride on the day of the study, at concentrations allowing administration of the desired dose at an infusion rate of 20 μL/kg/min (0.15-150 pmoL/μL). Compounds were infused via an IV catheter at six sequentially increasing doses. A group of vehicle-administered animals received vehicle throughout the study and data were reported from intervals timed analogously with the dose-response in compound 1-administered animals.
On the day of experimentation animals were anesthetized and instrumented. […] Ventilation was initiated, and baseline readings for the primary parameter of skin blood flow (SBF) were recorded. Readings for the secondary parameters were also recorded: (1) blood lactate concentration, (2) mean arterial pressure (MAP), and (3) blood pH. Data collection was performed continuously for SBF and MAP using NOTOCORD-hem™ (Instem), and blood samples were taken at each compound dose and immediately analyzed using an i-STAT® meter.
After the final dose administration, animals were euthanized and a final SBF measurement was recorded to detect any signal from the flow probe after the animal's heart stopped beating to control for a signal not attributed to blood flow. […]

Q: Which “SBF Emax” value does the source give for `NC(=O)CC[C@@H]1NC(=O)[C@H](Cc2ccccc2)NC(=O)[C@H](Cc2ccc(O)cc2)NC(=O)[C@@H](N)CSSC[C@@H](C(=O)N2CCC[C@H]2C(=O)N[C@@H](CCCN=C(N)N)C(=O)NCC(N)=O)NC(=O)[C@H](CC(N)=O)NC1=O` [AVP, arginine vasopressin] here?
A: The value was 91.8%.
